Measurements: paper PMC13184988, “Enzymatic Bromination of Native Peptides for Late-Stage Structural Diversification via Suzuki–Miyaura Coupling” (ACS Chemical Biology, 2026)

Test system: U2OS cells
Assay: Transportan localization (cellular uptake) assay, fluorescence imaging
Assay type: cell-based
Conditions: human U2OS cells, 5 µM, 20 min at 37°C, heparin washes, NucRed nuclear stain, fluorescence microscopy
Procedure: Using this approach, we brominated Trp 2 of transportan and coupled it to naphthalene-1-boronic acid to generate a naphthyl-modified peptide (Nap-transportan, Nap-TN, Figure S37; Table S3). […] To assess whether this derivative could be used to visualize cellular uptake, we incubated human U2OS cells with Nap-TN for 20 min in the presence of a far-red nuclear stain (NucRed; Figure d). […]
control was added in quadruplicate to each well of the 96 well plate using a multichannel pipette.
The cells were incubated with compound in the dark for 10 min at room temperature. After […]
incubation, 500 nM forskolin (final concentration) or PBS control was added to each well.
Immediately upon addition of forskolin, luminescence values were recorded for 2 h using a 400 […]
For each agonist, data were normalized per-well according to the following equation:
% cAMP inhibition = <1 − > Y − Y!"# @A × 100
Where Y is the luminescence value at a given agonist concentration, Ymin is the luminescence […]
value at the highest agonist concentration, and Ymax is the luminescence value for the forskolin […]
only control. For agonists that gave biphasic responses, only the inhibitory portion (Y < Ymax) of […]
the dose–response curve was used for fitting.
The dose-response curve was fit to the following equation: […]
quantification of nuclear transportan signals in Figure 5e. Fluorescence images were background […]

Substance | cellular uptake: intracellular blue fluorescence (DAPI channel imaging)
transportan | No intracellular blue fluorescence
7-naphthalene-L-tryptophan [Nap-Trp] | no detectable uptake
